In this assay the target is P. fluorescens HPPD (Pseudomonas fluorescens, UniProt A0ACG8AE61). Briefly: Dissociation of enzyme/inhibitor complexes by exchange with 14C-labelled inhibitor (koff; Kd = koff/kon). In kind it is binding. The text has this: Herbicidal inhibitors of HPPD are found here to have generally low values of koff (in the range less than 0.0003 s^−1, often less than 0.000001 s^−1). It will be appreciated that many suitable methods known in the art for determining such low koff values are suitable for working the current invention. These include measuring rates of exchange of radio or otherwise labelled inhibitors either with or away from the enzyme inhibitor complex. For example enzyme inhibitor complexes can readily be prepared by incubating HPPD preparations with labelled or unlabelled inhibitor and then, after suitable periods, optionally rapidly separating the thus formed enzyme inhibitor complex from excess inhibitor by any suitable method such as ultrafiltration, binding to filters or exchange down a gel filtration column. Exchange reactions with the, thus prepared enzyme inhibitor complex is then initiated by addition of, as appropriate, excess labelled or unlabelled inhibitor. […] Many methods such as radiometric, fluorimetric, NMR, fluorescence depolarisation, EPR, Mossbauer, UV/VIS spectrophotometry etc. or phonon resonance can, in principle, be used to monitor the enzyme/ligand exchange reactions and, particularly in this case where the enzyme contains an iron atom at the ligand binding site. Optionally, the monitoring method may be continuous (as, for example, with scintillation proximity/bead-based methods) or, discontinuous, based upon collection of data at various timepoints wherein samples are removed and the bound and unbound label components rapidly separated and quantitated.
Values of koff can suitably be calculated by computer fitting based upon is numerical integration of the exchange data along with information on the active-site concentration of HPPD and upon kon values obtained as described below. […] In any event, koff values are always here calculated from the rate of the major slow exchange reaction. […]
Not all test inhibitors are readily available in a radiolabelled form. […] The reaction is then monitored and the relative proportions of bound and unbound label determined at various times. […]

Protein sequences, listed by entry. Tags and fused reporters are not part of them.
UniProt A0ACG8AE61, entry or part of it: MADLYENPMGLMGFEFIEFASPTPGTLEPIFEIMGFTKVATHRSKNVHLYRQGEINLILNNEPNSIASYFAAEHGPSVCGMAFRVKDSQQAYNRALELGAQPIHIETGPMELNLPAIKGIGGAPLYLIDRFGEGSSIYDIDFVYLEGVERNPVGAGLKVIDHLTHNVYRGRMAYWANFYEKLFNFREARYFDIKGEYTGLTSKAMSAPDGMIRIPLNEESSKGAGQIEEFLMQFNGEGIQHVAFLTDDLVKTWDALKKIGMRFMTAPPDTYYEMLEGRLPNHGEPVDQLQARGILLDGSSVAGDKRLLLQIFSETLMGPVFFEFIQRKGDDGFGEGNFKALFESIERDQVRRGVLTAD

Where two headings read alike, the source gives them in different places.

The text below walks through data of US20090172831A1, “Methods for the production of plants resistant to HPPD herbicides” (Syngenta Limited, priority 2000, published 2009).

As usually defined, the koff is a measure of how fast the partners let go of each other.

For the compound `CS(=O)(=O)c1ccc(C(=O)C2C(=O)CCCC2=O)c([N+](=O)[O-])c1` [Structure I, 2-(Nitro-4-methanesulphonylbenzoyl)-cyclohexane-1,3-dione], the off-rate (koff) (− glycerol, read-out: koff) was 2e-06 s⁻¹. Consider `Cc1cc(C#N)ccc1C(=O)C1C(=O)C(C)(C)C(=O)C(C)(C)C1=O` [Structure VI, 2-[2-methyl-4-cyanobenzoyl]-4,4,6,6-tetramethylcyclohexane-1,3,5-trione], for which the koff is, setting by setting: (pH 7, in water at pH 7.0 and at 25 C, values of Table 3 restated) above 0.0002 s⁻¹; (− glycerol, read-out: koff) above 0.0004 s⁻¹.
